Results taken from ChEMBL document CHEMBL3797124, “Synthesis of azepino[4,5-b]indol-4-ones via MCR/free radical cyclization and in vitro-in silico studies as 5-Ht₆R ligands” (Bioorg Med Chem Lett, 2016).

Chains of the proteins cited; added tags and fusions are not shown.
UniProt P31388, whole entry: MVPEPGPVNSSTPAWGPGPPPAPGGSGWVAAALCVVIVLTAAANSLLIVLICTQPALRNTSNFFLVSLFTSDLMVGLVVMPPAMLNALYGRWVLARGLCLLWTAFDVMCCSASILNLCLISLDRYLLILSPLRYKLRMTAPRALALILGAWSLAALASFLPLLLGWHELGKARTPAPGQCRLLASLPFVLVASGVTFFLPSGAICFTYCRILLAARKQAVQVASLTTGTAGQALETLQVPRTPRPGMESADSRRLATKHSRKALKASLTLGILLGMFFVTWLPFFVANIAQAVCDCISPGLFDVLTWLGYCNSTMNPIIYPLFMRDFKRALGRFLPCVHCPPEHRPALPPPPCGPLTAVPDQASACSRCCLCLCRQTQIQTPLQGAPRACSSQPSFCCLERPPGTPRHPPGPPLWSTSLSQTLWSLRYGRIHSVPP

Assays:
[1] = molecular target: T1, 5-hydroxytryptamine receptor 6 (Rattus norvegicus, UniProt P31388); test: Displacement of [3H]-LSD from rat 5-Ht6 receptor expressed in HEK cells after 60 mins by liquid scintillation counting; assay type: cell-based, HEK293
[2] = molecular target: T1, 5-hydroxytryptamine receptor 6; test: Displacement of [3H]-LSD from recombinant rat 5-Ht6 receptor expressed in HEK293 cells after 120 mins by liquid scintillation counting; assay type: cell-based
[3] = molecular target: T1, 5-hydroxytryptamine receptor 6; test: Displacement of [3H]-5HT from recombinant rat 5-Ht6 receptor expressed in HEK293 cells after 120 mins by liquid scintillation counting; assay type: cell-based

Ki [1]: 3.8 nM
Ki [2]: 100 nM
Ki [3]: 100 nM
Structure (SMILES): CSc1ccc2c(c1)C(N1CCN(C)CC1)Cc1ccccc1S2 (stereo not drawn) [METITEPINE]
